# Antibody variant affinities, Ab-14 light chain, assay B

All variants were tested on one target, the spike HR2 peptide PDVDLGDISGINAS (SARS-CoV-2).

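Phage display of a naive human antibody library on the peptide gave the parent. Designed CDR sequences, proposed from the first random library and measured here. Their group label is 14L_En_HC (En: ensemble of fine-tuned language models; HC: hill climbing; a sequence that several methods proposed may carry one label only). The scFvs were displayed on barcoded MATa yeast, the peptide on MATalpha yeast. Binding brings cells together so that they mate, and sequencing counts the barcode pairs among the diploids. Scores were corrected for input abundance and mapped to Kd with protein pairs of known affinity run in the same pool. There are six technical replicates.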

Parent: Ab-14, a human scFv built as VH, a 15-residue (Gly4Ser)3 linker, VL. Only the CDRs of the light chain vary.
VH: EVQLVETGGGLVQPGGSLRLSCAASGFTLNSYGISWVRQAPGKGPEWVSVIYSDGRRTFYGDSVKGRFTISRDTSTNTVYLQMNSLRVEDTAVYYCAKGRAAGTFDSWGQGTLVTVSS
VL: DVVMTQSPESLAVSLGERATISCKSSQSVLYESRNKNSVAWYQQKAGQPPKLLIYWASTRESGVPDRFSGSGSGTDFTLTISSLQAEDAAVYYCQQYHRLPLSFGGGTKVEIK

The parent's light chain CDRs are KSSQSVLYESRNKNSVA, WASTRES, QQYHRLPLS; each variant's own CDRs replace them letter for letter.
Values are log10 of the apparent Kd in nM; lower means stronger binding.
Where no diploid with the target was found in that replicate, the entry reads "ND": below detection, most likely a poor binder, though not proof of it.
Three control strains display no target. For all light chain designs, 4% of the pairings with them gave a signal, with a median of 2.64 and one signal in twenty below 1.59, so weak values seen in few replicates may be background. The control count says in how many pairings with the empty strains this scFv gave a signal, with their mean in brackets.

{"CDR-L1": "NFSQMVLTGSTLKNSVA", "CDR-L2": "QASTREE", "CDR-L3": "QQYHRLPLI", "log10 Kd, replicates": "0.39 / 0.05 / 0.26 / 0.14 / 0.39 / 0.78", "control signals": "0 of 18"}
{"CDR-L1": "KLGQMTAMESRNLNSVA", "CDR-L2": "QMDTRES", "CDR-L3": "QQYHRLPLS", "log10 Kd, replicates": "-0.07 / 0.00 / 0.14 / 0.12 / 0.12 / -0.04", "control signals": "2 of 18 (2.13)"}
{"CDR-L1": "KLGQSTHIESFNKNNVA", "CDR-L2": "EMTTRES", "CDR-L3": "QSYDRLPLS", "log10 Kd, replicates": "1.91 / 1.59 / 1.25 / 1.74 / 1.59 / 1.67", "control signals": "1 of 18 (3.45)"}
{"CDR-L1": "KLSQSVNMTGKNKNSVA", "CDR-L2": "ELSFREA", "CDR-L3": "QQYERLPLS", "log10 Kd, replicates": "ND / 0.31 / 0.19 / ND / ND / 0.81", "control signals": "0 of 18"}
{"CDR-L1": "HISQSVGMTSREKNSVA", "CDR-L2": "ENSTRED", "CDR-L3": "QQYDRLPLS", "log10 Kd, replicates": "2.97 / 2.28 / 2.78 / 2.62 / 2.01 / 2.20", "control signals": "1 of 18 (3.38)"}
{"CDR-L1": "TVSQVHEMLSRNKNSVA", "CDR-L2": "DNNTRES", "CDR-L3": "QQYDRLPLS", "log10 Kd, replicates": "2.37 / 2.56 / ND / ND / ND / ND", "control signals": "0 of 18"}
{"CDR-L1": "IISGSMVMESKHKNSVA", "CDR-L2": "NAETREY", "CDR-L3": "QHYDRLPLS", "log10 Kd, replicates": "1.18 / 1.42 / 1.32 / 1.74 / 1.41 / 1.63", "control signals": "1 of 18 (2.98)"}
{"CDR-L1": "KLPMATMVEMVSKNNVA", "CDR-L2": "ELSTRGS", "CDR-L3": "QQYNRLPLS", "log10 Kd, replicates": "0.13 / -0.34 / -0.38 / -0.36 / 0.38 / -0.11", "control signals": "0 of 18"}
{"CDR-L1": "TIGQMFNGESRNRNSVA", "CDR-L2": "QAQTRES", "CDR-L3": "QSYDRLPLS", "log10 Kd, replicates": "0.81 / 1.07 / 0.80 / 0.61 / 0.71 / 0.80", "control signals": "2 of 18 (2.85)"}
{"CDR-L1": "MFSQLMEYGSRYKNSIA", "CDR-L2": "QASTREN", "CDR-L3": "QQYHWLPLS", "log10 Kd, replicates": "ND / ND / ND / ND / ND / ND", "control signals": "0 of 18"}
{"CDR-L1": "TLGDVTRMESNKKSSIA", "CDR-L2": "DMSNRAD", "CDR-L3": "QQYHRLPLE", "log10 Kd, replicates": "0.32 / -0.07 / 0.65 / 0.23 / 0.25 / 0.64", "control signals": "1 of 18 (3.00)"}
{"CDR-L1": "KLSQYVGGESRNKSSLA", "CDR-L2": "DNSTREA", "CDR-L3": "QQYERLPLS", "log10 Kd, replicates": "1.61 / 2.64 / 1.56 / 1.52 / 1.52 / 2.30", "control signals": "3 of 18 (2.07)"}
{"CDR-L1": "KLLQAVLGETYNKNSVA", "CDR-L2": "HNSTRED", "CDR-L3": "QEYARLPLS", "log10 Kd, replicates": "ND / ND / ND / 2.24 / ND / 2.45", "control signals": "1 of 18 (2.66)"}
{"CDR-L1": "KLKQSVGYESRNKSRVA", "CDR-L2": "DNSTRES", "CDR-L3": "QQYDRLPLS", "log10 Kd, replicates": "ND / 2.82 / 2.04 / 2.63 / 2.50 / 2.28", "control signals": "2 of 18 (2.52)"}
{"CDR-L1": "KLSMSMVLESFHKNSVA", "CDR-L2": "ENSTREE", "CDR-L3": "QHYHRLPLS", "log10 Kd, replicates": "1.49 / 1.69 / 3.06 / 2.88 / 1.53 / 2.08", "control signals": "4 of 18 (2.89)"}
{"CDR-L1": "KISMLYNYASTNKNSIA", "CDR-L2": "EMTTRED", "CDR-L3": "QHYHRLPLS", "log10 Kd, replicates": "1.45 / 1.38 / 0.93 / 1.59 / 0.62 / 0.98", "control signals": "1 of 18 (1.28)"}
{"CDR-L1": "MISQSFLIGMKAKNSVA", "CDR-L2": "QTNTRET", "CDR-L3": "QQYDRLPLI", "log10 Kd, replicates": "-0.16 / 0.10 / -0.13 / -0.09 / -0.01 / -0.07", "control signals": "1 of 18 (1.85)"}
{"CDR-L1": "KLYVSTMLETHNKNSIA", "CDR-L2": "DLSTRGN", "CDR-L3": "QQYHRLPLS", "log10 Kd, replicates": "0.54 / 0.65 / 0.80 / 0.54 / 1.03 / 0.79", "control signals": "1 of 18 (1.83)"}
{"CDR-L1": "IISQSMLYETATHNSIA", "CDR-L2": "QTSTREE", "CDR-L3": "QQYHHLPLS", "log10 Kd, replicates": "0.88 / 0.77 / 0.93 / 0.62 / 0.85 / 0.56", "control signals": "1 of 18 (2.69)"}
{"CDR-L1": "MLLQATMYGERNRNSVA", "CDR-L2": "HAMTRED", "CDR-L3": "QQYHRLPLI", "log10 Kd, replicates": "ND / 1.47 / 2.52 / 1.26 / ND / ND", "control signals": "0 of 18"}
{"CDR-L1": "HISMMVGTKGYNKKSVA", "CDR-L2": "NAETRED", "CDR-L3": "QQYHRLPLS", "log10 Kd, replicates": "0.37 / -0.14 / -0.10 / -0.32 / -0.24 / -0.05", "control signals": "1 of 18 (2.19)"}
{"CDR-L1": "KISGYLHKESKNKNSVA", "CDR-L2": "EMVNRES", "CDR-L3": "QQYDRLPLS", "log10 Kd, replicates": "0.89 / 0.71 / 1.66 / 0.66 / 0.78 / 1.13", "control signals": "0 of 18"}
{"CDR-L1": "TLSNSTDLESVHKNSIA", "CDR-L2": "DLMTRES", "CDR-L3": "QQYHRLPLS", "log10 Kd, replicates": "0.85 / 0.70 / 0.65 / 0.59 / 0.91 / 0.83", "control signals": "0 of 18"}
{"CDR-L1": "TISGLIMMPSRAKNNVA", "CDR-L2": "NTSTRYQ", "CDR-L3": "QQYHRLPLS", "log10 Kd, replicates": "0.76 / 0.59 / 0.50 / 0.41 / 0.47 / 0.50", "control signals": "1 of 18 (2.84)"}
{"CDR-L1": "KLLQNVMTEGRMRNNVA", "CDR-L2": "HMTMRED", "CDR-L3": "QQYWRLPLS", "log10 Kd, replicates": "1.25 / 1.38 / 1.08 / 0.79 / 1.60 / 1.30", "control signals": "3 of 18 (2.08)"}
{"CDR-L1": "KLSMTVDYMSATHSSVA", "CDR-L2": "QTSTREE", "CDR-L3": "QQYHRLPLS", "log10 Kd, replicates": "0.21 / 0.25 / -0.08 / -0.04 / 0.02 / 0.35", "control signals": "3 of 18 (2.69)"}

3 of these entries, quoted again:

CDR-L1,CDR-L2,CDR-L3,"log10 Kd, replicates",control signals
MISQSFLIGMKAKNSVA,QTNTRET,QQYDRLPLI,-0.16 / 0.10 / -0.13 / -0.09 / -0.01 / -0.07,1 of 18 (1.85)
KISGYLHKESKNKNSVA,EMVNRES,QQYDRLPLS,0.89 / 0.71 / 1.66 / 0.66 / 0.78 / 1.13,0 of 18
HISMMVGTKGYNKKSVA,NAETRED,QQYHRLPLS,0.37 / -0.14 / -0.10 / -0.32 / -0.24 / -0.05,1 of 18 (2.19)

The authors' rule: three or more of the six replicates give a measured affinity, fewer mean a poor binder.
A sequence measured in both rounds can read differently, since the two assays cover different ranges.

Reference: Li et al. 2023, doi:10.1038/s41467-023-39022-2. File: FLAb, binding data.